Target: T1, estrogen receptor α (ERα) (Homo sapiens, UniProt P03372)
T1 construct: endogenous in cells; host or cells: MCF-7
Assay: Western blot of ER protein expression (down-regulation)
Format: cell-based
Conditions: MCF-7 cells, FIG. 13

The chains behind the UniProt entries cited, without tags or fusion partners.
UniProt P03372, whole entry: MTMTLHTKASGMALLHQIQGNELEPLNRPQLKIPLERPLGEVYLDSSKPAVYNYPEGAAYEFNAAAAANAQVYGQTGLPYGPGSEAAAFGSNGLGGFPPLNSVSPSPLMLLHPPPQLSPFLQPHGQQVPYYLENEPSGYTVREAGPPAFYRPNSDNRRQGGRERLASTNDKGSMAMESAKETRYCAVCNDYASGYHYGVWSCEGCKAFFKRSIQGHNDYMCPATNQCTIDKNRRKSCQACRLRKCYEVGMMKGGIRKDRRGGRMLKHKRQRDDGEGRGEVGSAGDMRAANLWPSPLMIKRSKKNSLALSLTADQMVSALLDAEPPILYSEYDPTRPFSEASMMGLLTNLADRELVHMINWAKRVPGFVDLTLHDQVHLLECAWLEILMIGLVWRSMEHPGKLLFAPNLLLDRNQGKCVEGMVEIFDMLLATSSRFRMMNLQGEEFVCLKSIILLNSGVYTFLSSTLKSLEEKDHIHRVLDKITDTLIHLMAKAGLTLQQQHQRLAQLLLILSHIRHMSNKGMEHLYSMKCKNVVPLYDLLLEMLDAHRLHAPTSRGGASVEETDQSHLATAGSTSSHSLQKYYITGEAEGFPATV

ER protein expression: dramatically downregulated
Structure (SMILES): CC/C(=C(\c1ccc(O)cc1)c1ccc(/C=C/C(=O)O)cc1)c1ccccc1 [GW-7604, reference compound]

Source: patent publication US20190233442A1, “SELECTIVE ESTROGEN RECEPTOR DOWN-REGULATORS (SERDS)” (Xavier University of Louisiana, priority 2016, published 2019)
